The record followed here is ChEMBL document CHEMBL1136225, “Selective 3-amino-2-pyridinone acetamide thrombin inhibitors incorporating weakly basic partially saturated heterobicyclic P1-arginine mimetics” (Bioorg Med Chem Lett, 2003).

The test addresses Prothrombin (Homo sapiens, UniProt P00734). Nature of the test: Inhibitory activity against thrombin. The gist of the method:
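Amidolytic enzyme assays with chromogenic substrates for thrombin, trypsin and factor Xa; Ki derived from IC50 by Cheng–Prusoff, or from reaction velocity equations with and without inhibitor using the relevant Km.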

In general, Ki refers to the equilibrium dissociation constant of an inhibitor or competing ligand from its target. Higher therefore signals weaker binding.

With `Cc1ccc(NS(=O)(=O)Cc2ccccc2)c(=O)n1CC(=O)NC1CCc2nn(C)cc2C1` (stereo unspecified), the Ki is 25 µM.
